Assay results as given in patent publication US20200123244A1 (SHANGHAI BIOMABS PHARMACEUTICALS, published 2020).

Protein sequences, listed by entry. Tags and fused reporters are not part of them. Residues count along the entry.
UniProt P01375, 77-233 limits assumed: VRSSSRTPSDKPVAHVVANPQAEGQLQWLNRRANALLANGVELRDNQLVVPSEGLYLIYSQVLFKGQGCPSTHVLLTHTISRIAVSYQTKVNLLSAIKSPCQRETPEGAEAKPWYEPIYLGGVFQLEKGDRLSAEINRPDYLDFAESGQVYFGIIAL

Experiments:
[1] = target: T1, recombinant natural type human TNF-α (human, UniProt P01375 77-233); test: cell-based or functional assay
[2] = target: T1, recombinant natural type human TNF-α; test: cell-based or functional assay; remark: listed apart in the source
[3] = target: T1, recombinant natural type human TNF-α; test: BLI (Octet), fit value printed in the row of TNF-α 5 nM
[4] = target: T1, recombinant natural type human TNF-α; test: BLI (Octet), fit value printed in the row of TNF-α 10 nM
[5] = target: T1, recombinant natural type human TNF-α; test: BLI (Octet), fit value printed in the row of TNF-α 20 nM
[6] = target: T1, recombinant natural type human TNF-α; test: BLI (Octet), fit value printed in the row of TNF-α 2.5 nM
[7] = target: T1, recombinant natural type human TNF-α; test: BLI (Octet), antibody loaded on sensor, TNF-α in solution; lot 1301
[8] = target: T1, recombinant natural type human TNF-α; test: competitive ELISA on coated TNF-α, competitor HRP-labeled CMAB008; experiment 1
[9] = target: T1, recombinant natural type human TNF-α; test: competitive ELISA on coated TNF-α, competitor HRP-labeled CMAB008; experiment 2
[10] = target: T1, recombinant natural type human TNF-α; test: competitive ELISA on coated TNF-α, competitor HRP-labeled CMAB008; experiment 3
[11] = target: T1, recombinant natural type human TNF-α; test: competitive ELISA on coated TNF-α, competitor HRP-labeled CMAB008; mean ± S of 3
[12] = target: T1, recombinant natural type human TNF-α; test: calculated from the competitive ELISA EC50s with the literature Ka of Remicade (10^10 M-1) as reference

Kd [3]: 0.203 nM
koff [3]: 1.98e-05 s⁻¹
kon [3]: 97800 M⁻¹ s⁻¹
Kd [4]: 0.203 nM
koff [4]: 1.98e-05 s⁻¹
kon [4]: 97800 M⁻¹ s⁻¹
Kd [5]: 0.203 nM
koff [5]: 1.98e-05 s⁻¹
kon [5]: 97800 M⁻¹ s⁻¹
Kd [6]: 0.203 nM
koff [6]: 1.98e-05 s⁻¹
kon [6]: 97800 M⁻¹ s⁻¹
Kd [7]: 0.203 nM
EC50 [8]: 0.144 µg/mL
EC50 [9]: 0.14 µg/mL
EC50 [10]: 0.153 µg/mL
EC50 [11]: 0.146 µg/mL
Ka [12]: ~6.8e+09 M⁻¹
B1: recombinant chimeric anti-TNF-α monoclonal antibody CMAB008 (antibody, human IgG1, kappa, V domains shown)
VH: EVKLEESGGGLVQPGGSMKLSCVASGFIFSNHWMNWVRQSPEKGLEWVAEIRSKSINSATHYAESVKGRFTISRDDSKSAVYLQMTDLRTEDTGVYYCSRNYYGSTYDYWGQGTTLTVSS
VL: DILLTQSPAILSVSPGERVSFSCRASQFVGSSIHWYQQRTNGSPRLLIKYASESMSGIPSRFSGSGSGTDFTLSINTVESEDIADYYCQQSHSWPFTFGSGTNLEVKR
notes: also called CMAB008 #1301; CMA 008
fold increase of the median lethal dose of rh-TNF-α (from 0.46 µg/animal) with 500 µg/animal CMAB008 [1]: 18.9 times
EC50 (ED50) of neutralizing TNF-α killing of L929 cells, experiment 1 [2]: 16.6 ng/mL
EC50 (ED50) of neutralizing TNF-α killing of L929 cells, experiment 2 [2]: 17.4 ng/mL
EC50 (ED50) of neutralizing TNF-α killing of L929 cells, experiment 3 [2]: 16.2 ng/mL
